Test results: US20260034119A1, “5-METHOXY-N,N-[…][…], THEIR […], AND METHODS FOR TREATMENT OF NEUROLOGICAL, […], AND SUBSTANCE USE DISORDERS” (priority 2023, published 2026)

Protein sequences, listed by entry. Tags and fused reporters are not part of them.
UniProt P08908, whole entry: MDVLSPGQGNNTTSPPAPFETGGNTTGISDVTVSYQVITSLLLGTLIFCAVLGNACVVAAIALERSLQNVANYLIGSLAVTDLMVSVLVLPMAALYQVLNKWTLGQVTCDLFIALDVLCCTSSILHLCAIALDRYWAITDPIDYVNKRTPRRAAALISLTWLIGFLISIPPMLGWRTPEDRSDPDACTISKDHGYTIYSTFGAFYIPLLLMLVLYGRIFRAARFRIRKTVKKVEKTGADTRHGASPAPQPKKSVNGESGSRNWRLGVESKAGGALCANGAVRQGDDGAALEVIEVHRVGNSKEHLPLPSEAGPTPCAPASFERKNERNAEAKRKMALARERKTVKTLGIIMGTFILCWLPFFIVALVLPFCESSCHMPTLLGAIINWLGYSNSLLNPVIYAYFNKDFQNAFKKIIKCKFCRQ
UniProt P08908, whole entry A365N: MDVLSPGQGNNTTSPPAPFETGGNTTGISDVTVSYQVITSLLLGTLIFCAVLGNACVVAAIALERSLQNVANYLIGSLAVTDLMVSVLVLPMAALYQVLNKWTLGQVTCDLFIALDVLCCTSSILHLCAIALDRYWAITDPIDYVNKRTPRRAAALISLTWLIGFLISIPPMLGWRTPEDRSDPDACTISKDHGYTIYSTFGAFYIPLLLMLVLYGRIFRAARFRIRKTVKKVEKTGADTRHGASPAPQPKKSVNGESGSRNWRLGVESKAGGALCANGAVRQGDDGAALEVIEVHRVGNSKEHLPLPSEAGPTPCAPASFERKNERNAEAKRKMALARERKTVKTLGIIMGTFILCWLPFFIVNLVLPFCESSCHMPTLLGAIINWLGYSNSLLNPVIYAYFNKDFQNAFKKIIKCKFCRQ
UniProt P08908, whole entry N386V: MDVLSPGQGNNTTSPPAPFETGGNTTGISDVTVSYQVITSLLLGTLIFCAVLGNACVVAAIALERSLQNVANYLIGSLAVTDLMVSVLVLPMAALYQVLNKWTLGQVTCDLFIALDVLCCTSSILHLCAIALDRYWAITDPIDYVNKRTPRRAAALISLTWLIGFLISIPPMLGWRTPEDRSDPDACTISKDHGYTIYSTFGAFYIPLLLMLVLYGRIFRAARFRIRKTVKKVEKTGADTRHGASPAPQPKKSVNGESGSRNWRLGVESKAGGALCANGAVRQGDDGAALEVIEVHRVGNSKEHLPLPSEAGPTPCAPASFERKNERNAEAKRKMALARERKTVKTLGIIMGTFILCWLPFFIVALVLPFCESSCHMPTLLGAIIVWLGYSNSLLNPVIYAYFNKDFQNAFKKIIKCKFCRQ

Columns and labels:
[1] = target: T1, 5-HT1A (Homo sapiens, UniProt P08908); assay: cell-based
[2] = target: T1, 5-HT1A; assay: BRET signaling assay: 5-HT1A-mediated activation of heterotrimeric Gi1 (TRUPATH, HEK293-T); details: 5-HT1A WT
[3] = target: T1, 5-HT1A; assay: 5-HT1A-mediated cAMP reduction assay (GloSensor, HEK293-T); details: EC50 (nM), 5-HT1A WT
[4] = target: 5-HT1A A365N (Homo sapiens, UniProt P08908, A365N); assay: cell-based; details: EC50 (nM), Gi1 BRET, 5-HT1A A365N^6.55
[5] = target: 5-HT1A N386V (Homo sapiens, UniProt P08908, N386V); assay: cell-based

Structure (SMILES): COc1ccc2[nH]cc(CCN(C)C)c2c1 [Compound 8]
- EC50 [1]: 3.67 nM

Structure (SMILES): COc1ccc2[nH]cc(CCN(C)C)c2c1 [Compound 5-MeO-DMT, 5-methoxy-N,N-dimethyltryptamine, reference compound]
- EC50 [2]: 25.6 nM
- pEC50 [2]: (7.59,
- EC50 [3]: 3.49 nM
- EC50 [4]: 197 nM
- EC50 [5]: 38.2 nM
